We go through one compound from ChEMBL document CHEMBL3621167, “Therapeutic Potential of 5-HT6 Receptor Agonists” (J Med Chem, 2015).

The species entered for test [1] is Homo sapiens. Put plainly: Selectivity ratio of Ki for human 5-HT7 receptor to Ki for human 5-HT6 receptor.
The species named for test [2] is Homo sapiens. The experiment in a line: Selectivity ratio of Ki for human 5-HT1D receptor to Ki for human 5-HT6 receptor.
For test [3], the species on record is Homo sapiens. Put plainly: Selectivity ratio of Ki for human 5-HT1A receptor to Ki for human 5-HT6 receptor.

With `CCc1[nH]c2ccc(OC)cc2c1CCN(C)C`, the Ratio Ki in the test filed under Homo sapiens [1] is 18; in the test filed under Homo sapiens [2] it was 18; in the test filed under Homo sapiens [3] it was 10.
